Measured values as given in PubChem BioAssay AID373 (The Scripps Research Institute Molecular Screening Center, 2006).
Only a part is listed here, and it is no random draw. Active and inactive are the calls of the source.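 The calls were made as follows: active = activation above the screen-wide mean plus 3 SD (cut at about 4.5% in these data, passing the limit was not always enough); inactive = the rest, inconclusive results apart.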

Protein sequences, listed by entry. Tags and fused reporters are not part of them. Lines headed by an entry give the natural chain unless they say otherwise; changes in a name come on top.
UniProt Q99500: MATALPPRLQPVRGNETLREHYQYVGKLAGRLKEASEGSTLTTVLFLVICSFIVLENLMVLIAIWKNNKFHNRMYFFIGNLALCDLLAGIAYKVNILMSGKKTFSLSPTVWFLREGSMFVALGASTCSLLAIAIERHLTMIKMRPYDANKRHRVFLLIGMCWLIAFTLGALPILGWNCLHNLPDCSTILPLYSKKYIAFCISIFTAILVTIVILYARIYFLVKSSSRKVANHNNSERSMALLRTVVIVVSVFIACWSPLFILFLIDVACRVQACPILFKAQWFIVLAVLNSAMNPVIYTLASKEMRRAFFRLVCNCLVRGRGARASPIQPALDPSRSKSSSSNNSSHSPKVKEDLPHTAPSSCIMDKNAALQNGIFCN

Molecular target: Sphingosine 1-phosphate receptor 3 (Homo sapiens) (UniProt Q99500)
Experiment: activators of S1P3 receptor signaling – cell-based, primary and confirmation, NFAT-BLA reporter, primary screen (AID 373)
Conditions: S1P3 NFAT-BLA reporter cells, agonism, FRET ratio; at 4.5 µM; stronger effect = higher value; relative to 1 µM S1P, basal subtracted

Structure (SMILES) | activation
O=P(Nc1nccs1)(c1ccccc1)c1ccccc1 | inactive: -0.8%
c1nnnn1CCn1cnnn1 | inactive: -1.3%
O=C(OC1CN2CCC1CC2)c1cccc(Cl)c1 (centres undefined) | inactive: -0.8%
O=P1(Nc2nc3ccc(Cl)cc3s2)COc2ccccc2O1 (centres undefined) | inactive: -0.9%
Cc1c2non([O-])c-2c(C)[n+](=O)[n+]1[O-] | inactive: -2.3%
CCc1nc2c(n1)c1c(non1O)c1c2no[n+]1[O-] | inactive: -2.1%
COP1(=S)c2c(C)nn(CCC#N)c2N=C(c2ccc(F)cc2)N1C (centres undefined) | inactive: -0.9%
O=C(COc1ccccc1)OC1CN2CCC1CC2 (centres undefined) | inactive: -1.2%
O=C(OC1CN2CCC1CC2)C12CC3CC(CC(C3)C1)C2 (centres undefined) | inactive: -0.8%
Cc1cccc(OCC(=O)OC2CN3CCC2CC3)c1 (centres undefined) | inactive: -2.4%
CCOP1(=S)c2c(C)nn(CCC#N)c2N=C(c2ccc(F)cc2)N1C (centres undefined) | inactive: -0.1%
O=P(Nc1nccs1)(c1ccccc1)c1nc2ccccc2s1 (centres undefined) | inactive: -0.5%
CCOP1(=S)c2c(C)nn(CCC#N)c2N=C(c2ccccc2F)N1C (centres undefined) | inactive: -0.9%
O=P1(Nc2ncccn2)COc2ccccc2OC1 | inactive: -0.1%
Cc1ccc(OCC(=O)OC2CN3CCC2CC3)cc1 (centres undefined) | inactive: -0.9%
O=P1(Nc2ccc(Br)cn2)COc2ccccc2OC1 | inactive: 1%
Cc1nn(-c2ccccc2)c2c1P(=O)(N1CCOCC1)N(C)C(c1ccccc1)=N2 (centres undefined) | inactive: 0.1%
O=P1(Nc2ccccn2)COc2ccccc2OC1 | inactive: 0%
Clc1n[nH]nc1-c1nn[nH][15n]1 | inactive: -0.2%
